Measured values as given in patent US20190321291A1, “3D Printing and Drug Delivery” (Biogelx Limited, priority 2016, published 2019).

Experiment: Drug release assay from Fmoc-FF/S hydrogel into PBS release buffer, HPLC analysis
Assay type: physicochemical
Conditions: for Concentration (ug/mL) Gel: Fmoc-FF/S gel
Method: (§1) An 1100 Series high-performance liquid chromatography pump (Agilent, USA) was used for the analysis which was performed using acetonitrile with 0.1% TFA and water with 0.1% TFA. […] This concentration was kept constant until 16 mins; after that the gradient was decreased, reaching 40% (v/v) acetonitrile in water at 19 mins. The data was then processed manually using the software ‘Agilent Chemstation.’
The triplicate samples of release buffer were analysed by HPLC, and for the peaks corresponding to each model drug compound the peak area was measured. The average peak area was recorded, and using a standard curve prepared for each compound the concentration of each was determined.
At each of the specified time points the release buffer remaining in the wells was transferred to HPLC vials and stored at 4° C. until HPLC analysis was performed.
as §1, with “mins when” for “mins; after that”, “decreased to” for “decreased, reaching”
The triplicate samples of release buffer were analysed by HPLC, and for the peaks corresponding to each model drug compound the peak area was measured. The average peak area was recorded, and using standard curve prepared for each compound the concentration of each was determined.

Concentration (ug/mL) Control (30 min, 2 mM control solution of drug in PBS, release buffer PBS 37° C.): 7.26 µg/mL
Concentration (ug/mL) Gel (6 h): 3.32 µg/mL
Concentration (ug/mL) Gel (9 h): 2.25 µg/mL
Structure (SMILES): C=C[C@H]1C[N@]2CC[C@H]1C[C@@H]2[C@@H](O)c1ccnc2ccc(OC)cc12 [Quinidine]
